Source: ChEMBL document CHEMBL2417384 (J Med Chem, 2013)

Tests used:
Conditions in all cases: in vivo
Mus musculus [1] = assay: Toxicity in mouse at 300 mg/kg, po; assay type: organism-based; set-up: dose 300 mg/kg, route oral
Mus musculus [2] = assay: Dose normalized AUC in mouse at 1 mg/kg, iv; assay type: ADME, organism-based; set-up: dose 1 mg/kg, route intravenous
Mus musculus [3] = assay: Dose normalized AUC in mouse at 30 mg/kg, po; assay type: ADME, organism-based; set-up: dose 30 mg/kg, route oral
Mus musculus [4] = assay: Dose normalized AUC in mouse at 100 mg/kg, po; assay type: ADME, organism-based; set-up: dose 100 mg/kg, route oral

AUC/dose (Mus musculus [2]) [µM·h]	AUC/dose (Mus musculus [3]) [µM·h]	AUC/dose (Mus musculus [4]) [µM·h]	Compound	Activity (Mus musculus [1])
			CC(C)(O)c1ccc(-c2nc3c(c(=O)[nH]2)COCC3)cc1	Non-toxic
3.46	33.4	183.4	COc1ccc(C(=O)C2CCN(CC(=O)N(Cc3nc4c(c(=O)[nH]3)COCC4)CC3CC3)CC2)cc1	
